Source: PubChem BioAssay
Arr AP2 block – inhibitors of human beta-arrestin and AP2 interaction; FITC-arrestin peptide / GST-AP2 beads, flow cytometry; AP2 beta2 appendage carries R879A mutation; inhibition, % at 10 µM; hit rate 0.31% among 340,000;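 active = inhibition above a set limit, near 3 SD of compounds lacking own fluorescence, cut at about 54% in these data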;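 note: plate controls were DMSO wells for no effect and 5 µM unlabelled arrestin peptide for full effect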
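System: GST-AP2 R879A glutathione beads | Also added: FITC-arrestin peptide, 50 nM | Times: 12 min plus 1 h, RT | Signal: Bead flow cytometry, FITC channel | Buffer or medium: PBS with 0.05% Tween 20 and 0.1% BSA | Read-out basis: Percent drop in bead-associated FITC signal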
Yeast UUG start – modulators of start codon recognition fidelity in yeast; activity score, % at 18.7 µM; actives 0.13% (n = 350,000); S. cerevisiae UUG-firefly luciferase reporter, luminescence/redox ratio;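 active = replicate mean at a twofold rise or more, about +100% in these data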;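 note: firefly luciferase made from a UUG start codon reports start codon fidelity; reporter light over untreated wells divided by growth signal over untreated wells; some hits fall short of that in this replicate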
Pemphigus Ab inh – blocks pemphigus antibody binding to human desmoglein-3 | AID 588358 | binding (percent of control), % at 10 µM | hit rate 0.48% among 310,000 | P32926 | DSG3-coupled beads, scFv-anti-DSG3-GFP binding, flow cytometry; hits give low values;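 active = binding more than 3 SD below its plate's average and above zero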;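 note: hits lower antibody fragment binding to DSG3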
Rce1 inh – blocks yeast Ras-converting enzyme; calls only; hit rate 0.27% among 290,000; AID 2563; yeast membranes, quenched prenylated peptide cleavage fluorescence; Q03530;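 active = fall in fluorescence gain of 50% or more versus controls, with final raw signal at or below 3038400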;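 note: plate controls were neutral control wells for no effect and wells lacking membranes for full effect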
Tb MetRS inh – blocks T. brucei methionyl-tRNA synthetase activity; purified T. brucei MetRS, ATP depletion, Kinase-Glo luminescence; inhibition, % at 11.9 µM; hit rate 0.4% among 360,000; AID 624268;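 active = inhibition above a per-plate cutoff of the control wells' mean inhibition plus 3 SD, cut at about 5.5% in these data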;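 note: 0% = DMSO wells median and 100% = median of wells with control inhibitor compound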
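Material – parasite MetRS enzyme · Medium – HEPES-MgCl2-KCl buffer plus DTT, spermine, BSA, pyrophosphatase · Reagent – ATP, methionine and E. coli bulk tRNA substrates · Times – 15 min enzyme-compound preincubation, 2 h reaction, 10 min detection, 25 °C · Measured by – luminescence of leftover ATP · Evaluation – percent inhibition relative to median high and low control wells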
TbMetRS confirm – Trypanosoma brucei MetRS inhibition confirmed | shares compounds with Tb MetRS inh | T. brucei MetRS enzyme, luminescence (ATP depletion) | inhibition, % at 11.9 µM | hit rate 93% among 1,400; in the data active = inhibition above about 7%
Jurkat tox – Jurkat T cell cytotoxicity for MetRS hits. shares compounds with Tb MetRS inh. Jurkat cells viability, ATP luminescence. inhibition, % at 8.3 µM. hit rate 12% among 1,400. AID 624413; in the data active = inhibition above about 15%;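 note: 0% = vehicle and 100% = reference inhibitor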
Tb MetRS inh FP – inhibits T. brucei methionyl tRNA synthetase in orthogonal FP test; hit rate 44% among 1,400; shares compounds with Tb MetRS inh; AID 651607; inhibition, % at 11.9 µM; purified T. brucei MetRS, fluorescence polarization; in the data active = inhibition above about 17%;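 note: 0% = vehicle wells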
* hit, by the source's call; i = inactive; . = no result. Sampled rows, rich in hits. Any-hit rate of the full collection: about 1.2%.

SMILES	Arr AP2 block	Yeast UUG start	Pemphigus Ab inh	Rce1 inh	Tb MetRS inh	TbMetRS confirm	Jurkat tox	Tb MetRS inh FP
COc1ccc(N(CC(=O)Nc2ccc(Cl)cc2)S(=O)(=O)c2c(C)n[nH]c2C)cc1	-2.6	-14.8	102.1	i	8.7*	17.9*	3.6	9.9
Cc1noc(C)c1NC(=O)N[C@H]1CC[C@@H](CCNC(=O)C2CCCC2)O[C@H]1CO	.	0.1	.	.	.	.	.	.
CC(CNC(=S)Nc1cc(F)cc(F)c1)CSc1ccc(Cl)cc1 (stereo not given)	-1.6	-31.3	97.5	i	12.8*	24.8*	2.2	27.5*
CN1C(=O)c2cc(NC(=O)C3CCOCC3)ccc2OC[C@H]2O[C@H](CC(=O)NC3CCCC3)CC[C@H]21	.	1.4	.	.	.	.	.	.
COC(=O)c1ccc(CSc2nnc(Nc3ccc(C)cc3)s2)o1	-1.8	-20.7	108.0	i	7.5*	14.1*	0.9	7.9
CC(C)c1ccc(N)c(S(=O)(=O)O)c1	-3.8	.	92.6	i	7.7*	1.9	0.3	6.3
CCOc1ccc(Nc2ccc(N)c(S(=O)(=O)O)c2)cc1	-1.8	-6.0	114.6	.	-0.2	.	.	.
C[C@@H]1CN([C@H](C)CO)C(=O)Cc2cc(NC(=O)NC3CCCCC3)ccc2O[C@H]1CN(C)Cc1ccc2c(c1)OCO2	.	21.3	.	.	.	.	.	.
Cc1noc(C)c1NC(=O)N(C)C[C@@H]1Oc2ccc(NC(=O)Nc3ccc(C(F)(F)F)cc3)cc2C(=O)N([C@@H](C)CO)C[C@H]1C	.	7.4	.	.	.	.	.	.
CN(C)S(=O)(=O)c1cccc(NC(=O)Cc2ccc(Cl)cc2)c1	2.5	.	.	i	14.9*	27.3*	3.1	20.8*
O=C(Cc1ccc2c(c1)OCCO2)Nc1cccc(S(=O)(=O)N2CCOCC2)c1	-9.9	6.2	114.1	.	0.0	.	.	.
O=C(Cc1ccc(Cl)cc1)Nc1cccc(S(=O)(=O)Nc2ccccc2F)c1	-3.5	.	126.7	i	0.4	.	.	.
O=C(COC(=O)Cn1cnc2ccccc21)Nc1cccc(S(=O)(=O)N2CCOCC2)c1	-5.3	.	97.0	i	35.1*	56.8*	1.8	31.5*
O=C(Cc1ccc(Cl)c(Cl)c1)Nc1cccc(S(=O)(=O)N2CCOCC2)c1	8.0	.	.	i	58.8*	76.5*	0.3	65.0*
COCC(=O)N(C[C@H]1N[C@H](CO)[C@H]1c1ccc(C2=CCCC2)cc1)C(C)C	.	-1.3	.	.	.	.	.	.
C1CCCN(c2nc3nonc3nc2N2CCCCCC2)CC1	3.1	.	102.8	i	-1.3	.	.	.
Nc1nc2nonc2nc1N1CCCCC1	-1.7	36.6	107.2	i	7.1*	13.5*	2.9	2.9
CO[C@H]1CN(C)C(=O)c2ccc(NC(=O)C3CC3)cc2OC[C@@H](C)N(Cc2cccnc2)C[C@@H]1C	.	-15.9	.	.	.	.	.	.
NNC(=O)CSc1nc(-c2ccccc2)cn1-c1ccccc1	1.7	.	105.3	i	7.2*	2.9	-2.4	1.1
Nn1cc(-c2ccccc2)nc1SCC(=O)NCCc1ccccc1	39.8	-10.8	99.9	i	-0.9	.	.	.
O=[N+]([O-])c1ccc2nc(SCc3cn4cccnc4n3)[nH]c2c1	11.5	.	87.0	i	0.8	.	.	.
O=[N+]([O-])c1ccc2nc(SCc3cn4ccccc4n3)[nH]c2c1	-4.8	.	96.3	i	17.4*	35.2*	-2.8	21.4*
COc1cccc(-n2c(SCC(=O)N3CCOCC3)nnc2-c2c[nH]c3ccccc23)c1	8.0	-7.7	100.6	i	17.5*	29.8*	8.7	6.3
COc1ccc(S(=O)(=O)Nc2cccc3c2O[C@H](CN(C)Cc2ccc(C(=O)Nc4ccccc4N)cc2)[C@H](C)CN([C@H](C)CO)C3=O)cc1	.	12.0	.	.	.	.	.	.
OCCSCC(O)CC(O)c1ccccc1 (stereo not given)	.	0.5	.	.	.	.	.	.
O=C(C/C=N\OCc1ccc([N+](=O)[O-])cc1)Nc1ccc(Br)cc1	3.9	.	98.0	.	83.2*	101.4*	-1.0	90.8*
CC=Cc1ccc2n(c1=O)C[C@H]1[C@H](CO)[C@@H](C(=O)N3CCCCC3)[C@@H]2N1CC1CCCC1 (mixture of isomers)	.	11.2	.	.	.	.	.	.
O=C(NCc1cc(Br)cc(Br)c1OC(=O)c1ccccc1[N+](=O)[O-])c1ccccc1	-11.1	.	.	i	23.2*	27.5*	14.2	19.6*
O=C(CC(=O)c1ccccc1[N+](=O)[O-])c1ccccc1	.	.	.	i	.	.	.	.
COc1cccc(S(=O)(=O)N[C@H]2CC[C@@H](CCNC(=O)Nc3cc(F)ccc3F)O[C@@H]2CO)c1	.	7.2	.	.	.	.	.	.
C[C@@H]1CN([C@H](C)CO)C(=O)c2cc(NS(=O)(=O)c3cn(C)cn3)ccc2O[C@@H](C)CCCCO[C@@H]1CN(C)Cc1ccc(C(=O)O)cc1	.	13.3	.	.	.	.	.	.
COc1ccc(NC(=O)Nc2ccc3c(c2)C(=O)N([C@@H](C)CO)C[C@@H](C)[C@@H](CN(C)Cc2ccc(Cl)c(Cl)c2)OCCCC[C@@H](C)O3)cc1	.	4.3	.	.	.	.	.	.
COc1ccccc1CN1CCc2c([nH]c3ccccc23)C1	-2.9	-6.5	114.8	i	15.7*	31.4*	14.9	12.1
O=C(O)c1ccc(N2CCN(Cc3ccc4c(c3)OCO4)CC2)c([N+](=O)[O-])c1	14.8	-36.6	95.5	i	7.0*	15.5*	0.1	8.6
CCN(CC(=O)NCc1ccc(Cl)cc1)C(=O)CCc1ccccc1O	6.7	-6.2	104.2	i	37.0*	66.7*	3.2	33.2*
C[C@@H]1CCCCO[C@@H](CN(C)S(=O)(=O)c2ccc(F)cc2)[C@@H](C)CN([C@H](C)CO)C(=O)c2cc(NS(=O)(=O)c3ccccc3)ccc2O1	.	3.2	.	.	.	.	.	.
Cc1ccc(NS(=O)(=O)c2c(C)[nH]c(C)c2C(=O)N2CCCCC2)c(Cl)c1	3.7	-19.0	109.8	i	8.4*	21.0*	3.0	6.8
Cc1ccc(NS(=O)(=O)c2c(C)[nH]c(C)c2C(=O)N2CCCCC2)cc1Cl	-2.4	-2.3	.	i	21.9*	32.1*	2.2	11.7
COc1ccc(NC(=O)N(C)C[C@@H]2Oc3ccc(NS(=O)(=O)c4cn(C)cn4)cc3C(=O)N([C@@H](C)CO)C[C@@H]2C)cc1	.	8.6	.	.	.	.	.	.
O=C(Cn1cc(C(=O)C(=O)N2CCOCC2)c2ccccc21)Nc1cccc(C(F)(F)F)c1	.	-1.1	107.3	.	90.2*	97.0*	3.4	95.0*
COc1ccccc1NC(=O)Cn1cc(C(=O)C(=O)N2CCOCC2)c2ccccc21	15.7	2.2	103.3	i	0.0	.	.	.
O=C(/C(=C\c1ccccc1)c1nc2ccccc2[nH]1)c1ccc(Cl)cc1	-6.9	.	124.5	i	9.7*	3.8	78.8*	-0.3
O=C(/C(=C/c1ccc(Cl)cc1)c1nc2ccccc2[nH]1)c1cccs1	29.9	.	98.6	i	0.1	.	.	.
